The target of this assay is 5-hydroxytryptamine receptor 4 (Rattus norvegicus, UniProt Q62758).

The chains behind the UniProt entries cited, without tags or fusion partners. Where a name states a change or a piece, a line headed by the entry shows the natural chain unless it says otherwise.
UniProt Q62758: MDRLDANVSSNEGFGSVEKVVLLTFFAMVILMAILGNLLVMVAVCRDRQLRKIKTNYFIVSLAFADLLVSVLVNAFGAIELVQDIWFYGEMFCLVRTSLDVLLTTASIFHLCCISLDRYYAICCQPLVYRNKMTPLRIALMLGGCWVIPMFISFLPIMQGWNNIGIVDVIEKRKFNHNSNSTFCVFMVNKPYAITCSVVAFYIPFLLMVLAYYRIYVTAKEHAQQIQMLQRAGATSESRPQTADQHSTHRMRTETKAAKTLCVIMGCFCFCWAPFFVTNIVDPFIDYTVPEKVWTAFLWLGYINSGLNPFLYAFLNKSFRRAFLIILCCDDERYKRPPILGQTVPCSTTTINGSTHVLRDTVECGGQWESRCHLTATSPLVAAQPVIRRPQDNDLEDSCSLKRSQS

As a reminder, the Ki is a dissociation constant, usually derived from enzyme kinetics or from competition with a known ligand.

In the case of `NCCc1c[nH]c2ccc(O)cc12` [[3H]-5-HT], the affinity, expressed as Ki, was 0.145 µM. This counts as sub-micromolar.

Source of the values: BindingDB's records for PubMed 7796807 (Synaptic Pharmaceutical, 1995).
